The source of these data is BindingDB's records for doi:10.3109/14756366.2011.643303 (Ondokuz Mayis University, 2013).

Protein sequences, listed by entry. Tags and fused reporters are not part of them. Lines headed by an entry give the natural chain unless they say otherwise; changes in a name come on top.
UniProt P22748: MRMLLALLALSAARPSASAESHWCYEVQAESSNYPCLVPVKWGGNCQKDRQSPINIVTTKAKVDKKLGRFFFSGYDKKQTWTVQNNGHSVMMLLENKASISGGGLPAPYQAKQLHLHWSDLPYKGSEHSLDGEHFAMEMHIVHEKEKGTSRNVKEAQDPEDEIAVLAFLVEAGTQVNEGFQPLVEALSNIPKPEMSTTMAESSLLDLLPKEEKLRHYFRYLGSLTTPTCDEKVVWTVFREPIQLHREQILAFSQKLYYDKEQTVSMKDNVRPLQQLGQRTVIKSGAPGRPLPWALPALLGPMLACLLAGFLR

pKi: −log10 of the molar value.

By pKi is commonly meant the negative decadic logarithm of the Ki, by convention in mol/L. Higher therefore signals a small Ki.

The target in this experiment is Carbonic anhydrase 4 (Homo sapiens, UniProt P22748). The experiment is described as follows: Esterase Activity Assay. The conditions noted are these: pH 7.4.

In turn, `Oc1ccccc1O` [1,2-Dihydroxybenzene, XI] showed a pKi of 4.92.
